# Assay results reported in publication PMC8998827, “Ligandability Assessment of Human Glutathione Transferase M1-1 Using Pesticides as Chemical Probes” (International Journal of Molecular Sciences, 2022).
# Target: T1, hGSTM1-1 (Homo sapiens, UniProt P09488)
# T1 sequence (P09488 1-218): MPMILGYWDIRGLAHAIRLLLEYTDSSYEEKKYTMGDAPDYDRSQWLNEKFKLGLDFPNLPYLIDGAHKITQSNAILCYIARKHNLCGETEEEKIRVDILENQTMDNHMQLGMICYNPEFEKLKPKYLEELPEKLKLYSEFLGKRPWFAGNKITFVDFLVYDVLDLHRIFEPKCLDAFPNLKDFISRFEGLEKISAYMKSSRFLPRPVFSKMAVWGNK
# Conditions: pH 7.4, 25 °C
# Source text: Furthermore, the catalytic activity of hGSTM1-1 cannot be regained by extensive dialysis or gel filtration on Sephadex G-25. […] The Kapp calculated by inactivation experiments is in good agreement to that determined by kinetic inhibition analysis.
# The rate of inactivation was followed by periodically removing samples for assays of enzymatic activity.
smiles,measurement,setting,value
"NC(CCC(=O)NC(CSCCS(=O)(=O)F)C(=O)NCC(=O)O)C(=O)O (centres unmarked) [GS-ESF, S-glutathionyl ethylenesulfonyl fluoride]","k3, maximal rate of inactivation",GS-ESF 0.025–0.2 mM,0.052 ± 0.02 min⁻¹
same,Effect on catalytic activity on incubation,activity not regained by dialysis or gel filtration,time-dependent loss in catalytic activity
